From patent US20150328310A1, “METHODS AND COMPOSITIONS RELATING TO TREATMENT OF CANCER” (THE PENN STATE RESEARCH FOUNDATION, priority 2012, published 2015)

Tests used:
[1] = Serum chemistry profiles of mice; conditions: mouse, in vivo
[2] = test system: RKO; assay: Cell viability assay of ISC-4 combined with approved antitumor agents, RKO; format: cell-based, human; set-up: key: uncooperative (−); cooperative (+); synergistic (*); ambiguous (?); conditions: ISC-4 (1, 2, or 4 μM) plus therapy at putative EC12.5, EC25, EC50; compared to monoagent activity
[3] = test system: SW480; assay: Cell viability assay of ISC-4 combined with approved antitumor agents, SW480; format: cell-based, human; set-up: key: uncooperative (−); cooperative (+); synergistic (*); ambiguous (?); conditions: ISC-4 (1, 2, or 4 μM) plus therapy at putative EC12.5, EC25, EC50; compared to monoagent activity
[4] = test system: SW480 and RKO colon cancer cell lines; conditions: estimated from the literature; dose used with ISC-4 in FIG. 2; cited from earlier work

Substance | Cl [1] [mmol/L] | Combinatorial effect of ISC-4 with the listed therapy, RKO [2] | Combinatorial effect of ISC-4 with the listed therapy, SW480 [3] | EC12.5 [4] [µg/mL] | EC25 [4] [µg/mL] | EC50 [4] [µg/mL]
Cetuximab | 104 ± 5 | * | − | 0.25 | 0.5 | 
Trastuzumab |  | − | − | 0.0625 | 0.125 | 0.25
